Source: patent US12590130B2, “Bipartite molecules and uses thereof in treating diseases associated with abnormal protein aggregates” (ACADEMIA SINICA, priority 2014, dated 2026)

How the values were obtained:
APP/PS1 transgenic mice [1] = test: ELISA for Aβ40 and Aβ42 in brain of APP/PS1 mice given V24P(10-40)-PEI; format: in vivo, mouse
Method: (§1) APP/PS1 transgenic mice (B6C3-Tg (APPswe,PSEN1dE9) 85Dbo/Mmjax), purchased from Jackson Laboratories (USA), were bred and genotyped as described on the Jackson website. Jankowsky et al., Biomol Eng (2001) 17:157-65; Borchelt et al., Neuron (1996) 17:1005-13. The mice had access to food and water ad libitum and were kept on a 12:12 h light-dark cycle. PEI and V24P(10-40)-PEI were dissolved at a concentration of 400 μM in 100 mM NaH2PO4, 138 mM KCl, pH 5, and 4-month-old mice was given 2.5 μL of PEI (as the control) or V24P(10-40)-PEI in each nostril six days per week for the indicated period.
Briefly, the cortical or hippocampal tissue from PEI-treated or V24P(10-40)-PEI-treated APP/PS1 mice was weighed and homogenized at 4° C. in the cell extraction buffer provided in the kit, supplemented with protease inhibitor cocktail (Sigma, St. Louis, USA), then the homogenates in Eppendorf tubes were centrifuged at 13000 rpm at 4° C. for 10 min and the concentration of protein in the supernatant was measured using the microBCA protein assay (Thermo, IL, USA).
In this study, PEI was added to the C-terminus of the scavenger peptide V24P(10-40). 4-month-old APP/PS1 transgenic mice were administered with V24P(10-40)-PEI or PEI alone by nasal drops to both nostrils (1 nmole or 4 μg per nostril) six times per week. The mice were then sacrificed 4 months later and the A β contents of the brain were analyzed by ELISA.

APP/PS1 transgenic mice [2] = test: [11C]PiB microPET of APP/PS1 mice given V24P(10-40)-PEI; format: in vivo, mouse
Method: as §1
[^11C] […]
All imaging data were processed and analyzed using the PMOD 3.5 software package (Pmod Technologies, Zürich, Switzerland). The PET image dataset was converted to an absolute measure of radioactivity concentration (kBq/cc) using a phantom-derived calibration factor before being normalized to the injected dose of [^11C] […] PiB uptake in the cortex, hippocampus, amygdala, and olfactory bulb was evaluated. […]
The effect of the scavenger peptide on reducing amyloid plaque accumulation was examined in APP/PS1 mice treated with V24P(10-40)-PEI or PEI from the age of 4 months to 12 months, using micro positron emission tomography (microPET) with the radiotracer ^11C-labeled Pittsburgh compound B ([^11C] PiB), which binds to A β plaques. […] Quantification of [^11C]

[3] = intranasal 6 times a week for 4 months, 4-m to 8-m, ELISA
[4] = intranasal, four months, 4 to 8 months of age

YEVHHQKLVFFAED^DPGSNKGAIIGLMVGGVV-PEI (PEI conjugate; D-proline) [V24P(10-40)-PEI]
Aβ in hippocampus (% of control): Aβ40 (APP/PS1 transgenic mice [1]; [3]): Aβ40 28%^b % of control | Aβ in hippocampus (% of control): Aβ42 (APP/PS1 transgenic mice [1]; [3]): Aβ42 60% of control | reduction of Aβ40 in the cortex (APP/PS1 transgenic mice [1]; intranasal, four months): 87% | reduction of Aβ42 in the cortex (APP/PS1 transgenic mice [1]; intranasal, four months): 32% | reduction of Aβ40 in the hippocampus (APP/PS1 transgenic mice [1]; [4]): 72% | reduction of Aβ42 in the hippocampus (APP/PS1 transgenic mice [1]; [4]): 40% | [11C]PiB levels / amyloid plaque formation (APP/PS1 transgenic mice [2]; cortex, hippocampus, amygdala, olfactory bulb, treated 4 to 12 months of age): significant reduction in amyloid plaque formation | Aβ in hippocampus (% of control) (APP/PS1 transgenic mice [2]; intranasal 6 times a week for 8 months, 4-m to 12-m, microPET): 81%^c % of control

Marks after values point to notes of the source that are not given here.
